This passage reports IC50 results from patent US9518052B2, “Pyrazolopyridines and pyrazolopyrimidines” (Pfizer Inc., priority 2014, dated 2016).

Chains of the proteins cited; added tags and fusions are not shown.
UniProt P29597, whole entry, species assumed: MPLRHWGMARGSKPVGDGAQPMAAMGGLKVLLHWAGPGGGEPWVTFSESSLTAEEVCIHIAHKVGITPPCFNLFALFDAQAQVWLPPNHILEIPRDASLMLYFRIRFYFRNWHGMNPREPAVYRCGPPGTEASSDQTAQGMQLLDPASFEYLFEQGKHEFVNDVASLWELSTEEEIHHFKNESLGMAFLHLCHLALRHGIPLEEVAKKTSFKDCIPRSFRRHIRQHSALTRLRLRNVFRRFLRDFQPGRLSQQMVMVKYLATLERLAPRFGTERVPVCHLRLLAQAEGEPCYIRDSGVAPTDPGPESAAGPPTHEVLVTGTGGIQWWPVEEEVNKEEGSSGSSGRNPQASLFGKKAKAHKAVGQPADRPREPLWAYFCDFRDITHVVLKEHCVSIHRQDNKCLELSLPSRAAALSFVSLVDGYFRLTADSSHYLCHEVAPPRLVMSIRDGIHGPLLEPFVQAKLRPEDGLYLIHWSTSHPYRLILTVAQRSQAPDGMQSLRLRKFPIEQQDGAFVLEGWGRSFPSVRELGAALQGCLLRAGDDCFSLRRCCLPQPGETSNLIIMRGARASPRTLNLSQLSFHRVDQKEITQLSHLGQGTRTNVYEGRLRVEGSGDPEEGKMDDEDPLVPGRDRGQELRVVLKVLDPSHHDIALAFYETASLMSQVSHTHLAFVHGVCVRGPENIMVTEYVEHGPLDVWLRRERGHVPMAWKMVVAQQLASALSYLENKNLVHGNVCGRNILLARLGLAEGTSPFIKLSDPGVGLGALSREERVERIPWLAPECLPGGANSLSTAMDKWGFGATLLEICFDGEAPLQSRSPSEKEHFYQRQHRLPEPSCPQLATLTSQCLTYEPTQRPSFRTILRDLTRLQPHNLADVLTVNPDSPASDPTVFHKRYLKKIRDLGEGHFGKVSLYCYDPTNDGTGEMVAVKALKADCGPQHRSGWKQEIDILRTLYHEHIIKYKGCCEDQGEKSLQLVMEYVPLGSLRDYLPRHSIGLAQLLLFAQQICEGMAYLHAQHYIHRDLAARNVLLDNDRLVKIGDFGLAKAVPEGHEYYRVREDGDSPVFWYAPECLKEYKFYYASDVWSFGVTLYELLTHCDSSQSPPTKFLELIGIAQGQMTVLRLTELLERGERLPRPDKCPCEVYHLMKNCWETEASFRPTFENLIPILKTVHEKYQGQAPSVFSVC

Structures can show the parent of a compound that is named as a salt.

In the experiment the target is TYK2 (Homo sapiens (Human), UniProt P29597). As to the kind of experiment: JAK Caliper Enzyme Assay at 1 mM ATP (TYK2). The experiment is classed as biochemical. The settings on record: Caliper assay at 1 mM ATP. The procedure:
JAK Caliper Enzyme Assay at 1 mM ATP
Test article was solubilized in dimethyl sulfoxide (DMSO) to a stock concentration of 30 mM. An 11-point half log dilution series was created in DMSO with a top concentration of 600 μM. […] The compound plates were diluted 1 to 60 resulting in a top final assay compound concentration of 10 μM and a 2% DMSO concentration.
Test article and assay controls were added to a 384-well plate. Reaction mixtures contained 20 mM HEPES, pH 7.4, 10 mM magnesium chloride, 0.01% bovine serum albumin (BSA), 0.0005% Tween 20, 1 mM ATP and 1 μM peptide substrate. […] Enzyme concentrations and incubation times were optimized for each new enzyme preps and were modified slightly over time to ensure 20%-30% phosphorylation. The assays were stopped with a final concentration of 10 mM EDTA, 0.1% Coating Reagent and 100 mM HEPES, pH=7.4. The assay plates were placed on a Caliper Life Science Lab Chip 3000 (LC3000) instrument, and each well was sampled using appropriate separation conditions to measure the unphosphorylated and phosphorylated peptide.
What is called IC50 is the concentration needed to halve the response being measured. Compound `CNC(=O)c1n[nH]c2cc(-c3cc(F)c(O)cc3CC(F)(F)F)nc(NCc3cnccc3N(C)S(C)(=O)=O)c12` [Example 48, 6-[5-fluoro-4-hydroxy-2-(2,2,2-trifluoroethyl)phenyl]-N-methyl-4-[({4-[methyl(methylsulfonyl)amino]pyridin-3-yl}methyl)amino]-1H-pyrazolo[4,3-c]pyridine-3-carboxamide] gave an IC50 of 6.33 µM.

In turn, `CNC(=O)c1n[nH]c2cc(-c3cc(F)c(O)cc3C3CC3)nc(NCc3cccnc3N(C)S(C)(=O)=O)c12` [Example 49, 6-(2-cyclopropyl-5-fluoro-4-hydroxyphenyl)-N-methyl-4-[({2-[methyl(methylsulfonyl)amino]pyridin-3-yl}methyl)amino]-1H-pyrazolo[4,3-c]pyridine-3-carboxamide] registered an IC50 of 3.6 µM.

The compound `CS(=O)(=O)N(CCO)c1ccccc1CNc1nc(-c2cc(F)c(O)cc2CC(F)(F)F)nc2[nH]nc(C(N)=O)c12` [Example 101, 6-(5-fluoro-4-hydroxy-2-(2,2,2-trifluoroethyl)phenyl)-4-((2-(N-(2-hydroxyethyl)methylsulfonamido)benzyl)amino)-1H-pyrazolo[3,4-d]pyrimidine-3-carboxamide] returned an IC50 of 1.96 µM.

In turn, `CCc1cc(O)ccc1-c1cc2[nH]ncc2c(N2CC(Oc3cc(C#N)ccc3Cl)C2)n1` [Example 120, 4-chloro-3-({1-[6-(2-ethyl-4-hydroxyphenyl)-1H-pyrazolo[4,3-c]pyridin-4-yl]azetidin-3-yl}oxy)benzonitrile formate] returned an IC50 of 3.32 µM.

`CCc1cc(O)c(F)cc1-c1cc2[nH]ncc2c(N(CCN2CCOCC2)Cc2ccccc2N(C)S(C)(=O)=O)n1` [Example 140, N-[2-({[6-(2-ethyl-5-fluoro-4-hydroxyphenyl)-1H-pyrazolo[4,3-c]pyridin-4-yl][2-(morpholin-4-yl)ethyl]amino}methyl)phenyl]-N-methylmethanesulfonamide] showed an IC50 of 1.41 µM.

`Oc1cc(CC(F)(F)F)c(-c2nc(NCCC3CC3)c3cn[nH]c3n2)cc1F` [Example 152, 4-{4-[(2-cyclopropylethyl)amino]-1H-pyrazolo[3,4-d]pyrimidin-6-yl}-2-fluoro-5-(2,2,2-trifluoroethyl)phenol] showed a half-maximal inhibitory concentration (IC50) of 3.67 µM.
